Experimental data: PMC10449848, “Structural basis of lipid-droplet localization of 17-beta-hydroxysteroid dehydrogenase 13” (Nature Communications, 2023)
Residue numbers refer to the chain shown, from its start.

Chains of the proteins cited; added tags and fusions are not shown. Residues count along the entry.
UniProt A0A8C0PP93, 1-300 G177E/V178G/T205A/I293V: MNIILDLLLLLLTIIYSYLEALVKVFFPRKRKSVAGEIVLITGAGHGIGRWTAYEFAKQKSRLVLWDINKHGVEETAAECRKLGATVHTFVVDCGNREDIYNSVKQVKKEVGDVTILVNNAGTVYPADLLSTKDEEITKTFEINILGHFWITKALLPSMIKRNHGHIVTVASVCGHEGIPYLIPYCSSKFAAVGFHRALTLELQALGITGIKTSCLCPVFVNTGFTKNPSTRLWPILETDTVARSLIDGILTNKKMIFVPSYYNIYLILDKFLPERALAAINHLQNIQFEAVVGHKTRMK

Tests used:
dog WT HSD17B13 = target: T1, dog WT HSD17B13 (Canis lupus familiaris, UniProt A0A8C0PP93); experiment: Thermal shift assay (static light scattering, Tagg), dog WT HSD17B13; type: binding; conditions: Fig. 6d; 500 μM NAD+
T1 construct: HSD17B13 (AA1-300, XP_038300006.1); made in house; host or cells: Sf9 (baculovirus)
T1 sequence (A0A8C0PP93 1-300): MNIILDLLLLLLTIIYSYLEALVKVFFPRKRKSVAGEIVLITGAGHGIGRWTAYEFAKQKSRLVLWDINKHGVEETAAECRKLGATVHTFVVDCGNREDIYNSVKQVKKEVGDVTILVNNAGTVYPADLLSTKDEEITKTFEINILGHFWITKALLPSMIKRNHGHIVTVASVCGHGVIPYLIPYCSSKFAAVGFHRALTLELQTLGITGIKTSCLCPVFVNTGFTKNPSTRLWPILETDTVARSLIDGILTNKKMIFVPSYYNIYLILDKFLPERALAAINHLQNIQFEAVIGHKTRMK
Source text: (§1) To understand ligand binding, we tested several approaches such as surface plasmon resonance and isothermal calorimetry. […] We next turned to thermal shift assays (TSA) for comparing ligand binding affinities. TSA measures the changes in the thermal denaturation temperature of a protein under different conditions such as the presence compound, changes in buffer conditions, or sequence mutations. There are various readouts including intrinsic fluorescence or light scattering signals. We chose the static light scattering methods to detect the temperatures at which our proteins start to aggregate (Tagg), which are more suitable for membrane proteins that require detergent micelles for stability.
(§2) TSA studies were run on the UNit instrument (Unchained Labs, CA, USA). […] The data was processed using the UNcle software (Unchained Labs, CA, USA), and temperatures at which the protein started aggregation were recorded as Tagg.

[1] = target: T2, dog mutant HSD17B13 (G177E/V178G/T205A/I293V) (Canis lupus familiaris, UniProt A0A8C0PP93, G177E/I293V/T205A/V178G); experiment: Thermal shift assay (static light scattering, Tagg), dog mutant HSD17B13; type: binding; conditions: Fig. 6d; 500 μM NAD+
T2 construct: HSD17B13 (AA1-300, XP_038300006.1); made in house; host or cells: Sf9 (baculovirus)
T2 sequence (A0A8C0PP93 1-300 G177E/V178G/T205A/I293V): T1 sequence (A0A8C0PP93 1-300) with G177E, V178G, T205A, I293V
Source text: as §1, §2

With Cc1ccc(S(=O)(=O)c2cc(C)cc(S(=O)(=O)Nc3ccc(C(=O)O)cc3)c2C)cc1 [Compound 2] the “stabilization in TSA” value (dog WT HSD17B13) was “Neither 1 nor 2 stabilized dog WT HSD17B13 significantly” and the “binding in TSA” value [1] was “did not bind compound 2 significantly”.
